For the assay, the target named is E7B6-TTp-E7B6-GFP-E7B6. As to the kind of experiment: complex formation by incubation; […].

B1: scBsDB DD2x7B6 (bispecific antibody)
chain: DAAQPAMADYKQVKLQQSGAELVKPGASVKLSCKASGYTFTTYYMYWVKQRPGQGLEWIGEISPINGATNFNEKFKSKATLTVDKSSSTAYMQLSSLTSEDSAVYYCTTLGEKGFAYWGQGTLVTVSAESQSFPNVGGGGSDIVLTQSPSSLAVSAGEKVTMSCRSSQSLLDSRTRKNYLAWYQQKPGQSPKLLIYWASTRESGVPDRFTGSGSGTDFTLTISNVQAEDLAVYYCKQSYNLPTFGGGTKLEIKRADAAPTVSGPGGGGSGGGGSGAGGSGGGGSGGGGSMADYKEVKLQESGGGLVQPGRPMKLSCVASGFTFSDFWMNWVRQSPEKGLEWVAQIRNKPNNYETYYSDSLKGRFTISRDDSKSSVYLQMNNLRPEDMGIYYCTLGNSWFAYWGQGTLVTVSGGGGSDIVLTQSPLSLPVSLGDQASISCRSSQSLVHSNGNTYLHWYLQKPGQSPKLLIYKVSNRFSGVPDRFSGSGSGTDFTLKISRVEAEDLGVYFCSQSTHVPFTFGSGTKLEIKRADAAPTVSAAARGGPEQKLISEEDLNSAVDHHHHHH
With B1, the binding result is on record as “binds”.
